Assay [1] has as its target T1, sEH (Homo sapiens, UniProt P34913). Briefly: Cell-based sEH activity assay in HepG2 cells. Also on record: endogenous in cells; host or cells: HepG2. The note with it: 10 µM.
Assay [2] deals with T1, sEH. The format is biochemical. Also on record: purchased Cayman Chemicals #10011671. The note with it: 0.01 µM.

Sequences of proteins named here, by UniProt entry; tags and fusion partners are left off.
UniProt P34913, whole entry: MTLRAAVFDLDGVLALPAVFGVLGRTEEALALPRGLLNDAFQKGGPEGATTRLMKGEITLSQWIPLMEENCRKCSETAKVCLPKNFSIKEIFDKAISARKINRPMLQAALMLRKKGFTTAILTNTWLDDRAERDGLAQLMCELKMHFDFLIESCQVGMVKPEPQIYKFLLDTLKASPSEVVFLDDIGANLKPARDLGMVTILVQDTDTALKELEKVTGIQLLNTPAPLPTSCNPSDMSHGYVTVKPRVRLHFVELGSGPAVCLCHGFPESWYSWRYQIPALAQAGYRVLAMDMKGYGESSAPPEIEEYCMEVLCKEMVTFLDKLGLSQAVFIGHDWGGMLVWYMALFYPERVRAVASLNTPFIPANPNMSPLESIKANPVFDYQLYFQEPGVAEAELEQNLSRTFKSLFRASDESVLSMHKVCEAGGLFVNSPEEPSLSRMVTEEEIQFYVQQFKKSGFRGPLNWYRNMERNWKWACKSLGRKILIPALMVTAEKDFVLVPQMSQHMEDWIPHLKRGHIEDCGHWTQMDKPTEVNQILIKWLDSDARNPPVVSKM

On to AUDA [reference compound], for which the “inhibition of sEH activity in HepG2 cells” value at sEH [1] is reported as 80–95%. Further, the “inhibition of recombinant sEH” value at sEH [2] is listed as 80–95%.

The values are drawn from publication PMC8637440, “Structural Modifications Yield Novel Insights Into the Intriguing Pharmacodynamic Potential of Anti-inflammatory Nitro-Fatty Acids” (Frontiers in Pharmacology, 2021).
